According to patent publication US20110020272A1, “COMBINATION THERAPY FOR TREATING HEPATITIS VIRAL INFECTION” (priority 2009, published 2011):

Test system: HCV replicon (Con-1) in Huh-7 Luc-ubi-neo/ET replicon cells
Experiment: Luciferase reporter assay, treatment protocols I to VI, Huh-7 Luc-ubi-neo/ET replicon cells

O=C1CN(N=C[C@H](Cc2ccccc2)NC(=O)[C@H](Cc2c[nH]c3ccccc23)NC(=O)[C@H](Cc2c[nH]c3ccccc23)NC(=O)OCc2ccccc2)C(=O)N1 [S-2209, S,S,S-[1-[1-[1-Benzyl-2-(2,4-dioxo-imidazolidin-1-ylimino)-ethylcarbamoyl]-2-(1H-indol-3-yl)-ethylcarbamoyl]-2-(1H-indol-3-yl)-ethyl]-carbamic acid benzyl ester]
effect on viral propagation, protocol III: markedly enhanced effect in lowering viral propagation | effect on replication, protocol I versus protocol II (1.85 μM S-2209 24 h first, then IFN-a 0.75 IU/ml / RbV 25 μM 24 h (protocol I) vs reverse order (protocol II)): indistinguishable from the effect of the reverse treatment | effect on replication, triple treatment (protocol VI) (three 24 h treatments with proteasome inhibitor and IFNa or IFN-a/RbV): most pronounced effect
